The values below come from patent US9855310B2, “Coix seed oil containing 8 triglycerides, and pharmaceutical preparation and use thereof” (ZHEJIANG KANGLAITE GROUP CO., LTD., priority 2014, dated 2018).

Molecules are shown by their SMILES.

This test relates to MDA-MB-435 human breast cancer. Nature of the test: MDA-MB-435 human breast cancer transplanted in nude mice. The test is classed as in vivo, BALB/C nude mice. As to conditions: 50 mg/kg, ip × 1. As for the experimental part: The injection of the invention (10 g/100 ml), Paclitaxel injection (30 mg/5 ml) and normal saline
MDA-MB-435 human breast cancer: inoculated in BALB/C nude mice (SPF grade), 18-20 g, female
Tumor blocks of well-grown MDA-MB-435 cancer were homogenized in normal saline to obtain cell suspensions in the concentration of 1-2×10^7 cells/ml. Each nude mouse was inoculated with 0.2 ml of the suspension at the right axilla subcutaneously, and the mice were grouped randomly. The administration began from the 7th day after the inoculation. 18 Days after the inoculation, the mice were sacrificed. Tumor blocks were taken out and weighed. Differences of tumor weight between each experimental group and the control group were compared, and tumor inhibition rates and Q values were calculated.

As to `CC(=O)O[C@H]1C(=O)[C@@]2(C)[C@H]([C@H](OC(=O)c3ccccc3)[C@]3(O)C[C@H](OC(=O)[C@H](O)[C@@H](NC(=O)c4ccccc4)c4ccccc4)C(C)=C1C3(C)C)[C@]1(OC(C)=O)CO[C@@H]1C[C@@H]2O` [Taxol, Paclitaxel], the “Weight of tumor (g) x ± SD” value was 1.01 ± 0.33 g.
